These results are taken from ChEMBL document CHEMBL5512690, “Identification and Validation of PKR as a Direct Target for the Novel Sulfonamide-Substituted Tetrahydroquinoline Nonselective Inhibitor of the NLRP3 Inflammasome” (J Med Chem, 2024).

Some results are limits rather than exact numbers.

The nature of series [1]: in vivo. The following applies: ICR, mouse, brain, ip, 20 mg/kg.
Series [2] in a line: in vivo. The following applies: Sprague-Dawley, rat, po.
Series [3] can be described thus: in vivo. The following applies: ICR, mouse, plasma, ip, 20 mg/kg.
The nature of a further series: in vitro. The following applies: human, HMC3 cells.
Series [4] can be described thus: in vivo. The conditions noted are these: ICR, mouse, plasma, ip, 20 mg/kg. The source holds these as a separate data set.
Series [5] can be described thus: in vivo. The following applies: ICR, mouse, brain/plasma, ip, 20 mg/kg.
The nature of series [6]: in vivo. The following applies: ICR, mouse, brain/plasma, ip, 20 mg/kg. The source holds these as a separate data set.
Series [7] in a line: Cytotoxicity against human differentiated THP-M cells derived PMA induced THP-1 cells measured after 72 hrs by MTT assay. In general terms: Tetrazolium dyes change colour on reduction, which living cells bring about.
Series [8] can be described thus: in vivo. The following applies: ICR, mouse, brain, ip, 20 mg/kg. This is another data set of the same source.
A short description of series [9]: in vivo. The following applies: Sprague-Dawley, rat, po. The source holds these as a separate data set.

Broadly, the Tmax is the time at which the peak concentration occurs. As usually defined, the CC50 is the concentration that lowers cell viability or growth by half. Read a high CC50 as lower toxicity to the cells. What is called Kp is the ratio of the level in a tissue or fluid to that in plasma or blood. As a reminder, the half-life is how long it takes for the measured level to halve. Read a low half-life as rapid decline. Regarding `CS(=O)(=O)N1CCCc2ccc(NS(=O)(=O)c3ccc(-c4ccccc4)cc3)cc21`, the concentration at 10 min in the series “in vivo [1]” was 1340 ng/g; in “in vivo [4]”, 5.03 µg/mL. The Tmax at 24 h in the series “in vivo [2]” was around 0.8 h. Further, the concentration at 40 min worked out at 2.98 µg/mL in the series “in vivo [3]” and 1110 ng/g in the series “in vivo [8]”. The CC50 at 72 h in “in vitro” was determined as 88.8 µM. In “in vivo [5]”, this compound came in with a Kp at 10 min of 0.27. The Kp at 40 min in the series “in vivo [6]” was determined as 0.37. In [7], this compound displayed a CC50 above 100 µM. This compound also had a half-life at 24 h in “in vivo [9]” of around 5 h.
